Reference: patent US8324235B2, “Heterocyclic spiro-compounds” (Novartis AG, priority 2007, dated 2012)
pIC50: −log10 of the molar value.

By UniProt entry, the sequences of proteins in these tests, tags left out.
UniProt P11511, whole entry: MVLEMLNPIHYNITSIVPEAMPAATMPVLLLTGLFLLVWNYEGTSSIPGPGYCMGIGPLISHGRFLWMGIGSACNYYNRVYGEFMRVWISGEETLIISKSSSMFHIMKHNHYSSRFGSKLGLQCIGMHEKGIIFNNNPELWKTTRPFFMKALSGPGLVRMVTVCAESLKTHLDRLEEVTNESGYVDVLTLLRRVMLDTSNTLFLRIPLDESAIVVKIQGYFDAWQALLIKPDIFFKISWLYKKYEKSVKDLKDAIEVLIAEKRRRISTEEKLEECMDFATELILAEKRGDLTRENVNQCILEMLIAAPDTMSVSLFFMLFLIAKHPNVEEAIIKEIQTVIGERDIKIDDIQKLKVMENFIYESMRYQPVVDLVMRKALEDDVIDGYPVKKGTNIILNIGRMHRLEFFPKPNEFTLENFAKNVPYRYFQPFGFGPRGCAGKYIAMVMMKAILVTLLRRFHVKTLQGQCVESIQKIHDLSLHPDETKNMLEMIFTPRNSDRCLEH

Molecular target: recombinant human Cyp19 enzyme (aromatase) (Homo sapiens, UniProt P11511)
Experiment: Cyp19/MFC high throughput aromatase inhibition kit
Details: read-out: IC50 value (aromatase inhibition), average of several measurements
Procedure: The compounds of the formula (I′) have at least one asymmetric carbon atom, which is labelled “*”. A compound of the formula (I′) is to be understood as a compound having a specific configuration around the designated asymmetric carbon atom. If a synthesis method is used which leads to racemic compounds, the racemate resolution is carried out in accordance with conventional methods, such as via a chiral HPLC column. […] The aforementioned aromatase inhibitory activity can, as the skilled worker is well aware and as described below, be comfortably determined via the commercial Cyp19 enzyme inhibition kit (vide infra). In the abovementioned inhibition kit, compounds of the formula (I′) have an activity which is at least 10 times lower, preferably 20 times lower than the compounds of the formula (I′) with the opposite configuration around the asymmetric carbon atom labelled “*”.
The enzyme aromatese (CYP19) mediates the rate-limiting step of estrogen biosynthesis in human and rodent species. […]
The concentration-dependent interference of the compounds with aromatase can be measured in vitro using a commercial Cyp19 enzyme inhibition kit and the manufacturer's instructions. […]

`N#Cc1ccc2c(c1)OCC21CCCn2cncc21` (stereo not shown) gave a pIC50 of 7.93.
